From patent publication EP1142883A1, “NOVEL HETEROCYCLIC COMPOUNDS AND DRUG COMPOSITIONS CONTAINING THE SAME” (Asahi Kasei Kabushiki Kaisha, priority 1998, dated 2000)

Tested on: Caco-2 cell
Assay: Permeability through human small intestine epithelium (Caco-2 cell layer)
Details: Caco-2 layer, cup side pH 6.5, base side pH 7.4, drug 20-40 µM, 37°C
Text: Human colon adenocarcinoma, Caco-2 cell, when cultured, spontaneously differenciates to form a cell layer consisting of a polar single layer having microvillus similar to small intestine epithelial cell. The presence of tight junction has been found out in the membrane formed. Therefore, the above cell layer can be used as a model system of human small intestine epithelium and is recognized as the simplest system to evaluate the permeability through a membrane of a drug orally administered to human. The specific experimental method is as follows.
Before the cells reached confluence, DMEM was removed and the flask was washed with PBS (phosphate buffered saline, pH 7.2, Ca, Mg free (Gibco BRL)) and treated with trypsin/EDTA to peel off the cells, which were then harvested. […]
DMEMs in the cup side and base side of Transwell were removed and then replaced with a buffer for the permeation experiment (HBSS (Hanks Balanced Salt Solution, Gibco BRL), 10 mM Mes, pH 6.5 (mfd. by DOJINDO) or 10 mM Hepes, pH 7.4 (mfd. by DOJINDO) containing 25 mM glucose and 0.05% Tween 80). […] With additionally incubating at 37°C, 80 µL aliquot of the base side buffer was sampled with the passage of time to quantitate the amount of the drug permeated into the base side buffer. […]
In this connection, the quantitation of the drug was carried out with LC/MS or HPLC (detecting with fluorescence). […]

## (R)-[[6-[2-[2-(9H-carbazol-2-yloxy)ethylamino]-1-hydroxyethyl]-(2,3-dihydro-1,4-benzoxazin)-4-yl]sulfonyl]dimethylamine [Example 6]
  Permeability Coefficient Papp × 10^-6 (cm/s): 0.58 × 10^-6 cm/s
